Legend:
PEDV S1 protein [1] = biological target: T1, PEDV S1 protein (Porcine epidemic diarrhea virus, UniProt Q91AV1); assay: SPR kinetic measurement (Biacore X100, CM5 chip); details: 1:1 binding fit, peptide 0.78125-25 μM, HBS-EP pH 7.4, 30 μL/min, 120 s association, 120 s dissociation
PEDV S1 protein [2] = biological target: T1, PEDV S1 protein; assay: ELISA affinity of his-labeled peptides to coated PEDV S1 protein; type: binding; details: PEDV S1 coated at 10 μg/mL; his-labeled peptide 1 μg/mL, 1 h 37 °C; anti-his mAb 1:1000; TMB; three parallel groups

The chains behind the UniProt entries cited, without tags or fusion partners. Residues count along the entry.
UniProt Q91AV1, 26-734 limits assumed: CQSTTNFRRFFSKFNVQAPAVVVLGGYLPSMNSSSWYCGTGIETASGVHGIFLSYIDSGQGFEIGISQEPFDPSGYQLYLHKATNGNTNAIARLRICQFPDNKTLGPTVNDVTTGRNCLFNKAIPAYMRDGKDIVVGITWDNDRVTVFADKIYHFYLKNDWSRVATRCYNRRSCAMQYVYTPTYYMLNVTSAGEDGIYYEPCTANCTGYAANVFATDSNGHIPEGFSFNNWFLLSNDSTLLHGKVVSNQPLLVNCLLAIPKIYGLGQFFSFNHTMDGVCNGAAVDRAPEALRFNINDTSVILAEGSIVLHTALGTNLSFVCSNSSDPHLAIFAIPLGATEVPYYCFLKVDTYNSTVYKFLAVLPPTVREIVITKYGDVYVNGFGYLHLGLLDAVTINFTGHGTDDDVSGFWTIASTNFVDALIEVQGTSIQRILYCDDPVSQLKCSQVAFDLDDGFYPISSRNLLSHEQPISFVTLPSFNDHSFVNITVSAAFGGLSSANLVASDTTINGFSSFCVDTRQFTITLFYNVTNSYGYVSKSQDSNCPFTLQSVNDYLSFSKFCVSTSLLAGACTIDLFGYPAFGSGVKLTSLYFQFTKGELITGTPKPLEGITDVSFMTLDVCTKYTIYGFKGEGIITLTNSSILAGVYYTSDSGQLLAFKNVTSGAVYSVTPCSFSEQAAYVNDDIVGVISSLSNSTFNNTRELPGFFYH

Compound | Kd (PEDV S1 protein [1]) | OD value at 450 nm (ELISA) (PEDV S1 protein [2])
CC[C@H](C)[C@H](NC(=O)[C@H](CCCNC(=N)N)NC(=O)[C@H](Cc1c[nH]cn1)NC(=O)[C@H](CCCCN)NC(=O)[C@H](Cc1c[nH]c2ccccc12)NC(=O)[C@H](Cc1ccccc1)NC(=O)[C@@H](NC(=O)[C@H](CCCNC(=N)N)NC(=O)[C@H](Cc1c[nH]cn1)NC(=O)[C@H](CCCCN)NC(=O)[C@H](Cc1c[nH]c2ccccc12)NC(=O)[C@@H](N)Cc1ccccc1)[C@@H](C)CC)C(=O)O [compound 111740] | 0.01975 s⁻¹ | –
FWKPKR [compound 114180] | – | 0.233
